Laboratory results: patent US9517229B2, “Treatment of breast cancer” (MEDIVATION PROSTATE THERAPEUTICS, INC., priority 2011, dated 2016)

Tested on: SDF-1, progesterone receptor and androgen receptor gene expression
Assay: E2-mediated upregulation of E2/ER regulated gene expression
Type: cell-based
Details: FIG. 4
[1] = presence or absence of estradiol (E2)

E2-mediated upregulation of androgen receptor: blocks E2-mediated upregulation
E2-mediated upregulation of SDF-1 gene expression [1]: blocks E2-mediated upregulation
E2-mediated upregulation of progesterone receptor gene expression [1]: blocks E2-mediated upregulation
Compound: CNC(=O)c1ccc(N2C(=S)N(c3ccc(C#N)c(C(F)(F)F)c3)C(=O)C2(C)C)cc1F [RD162′, enzalutamide]
